Results published in patent US6069177A, “3-Hydroxy-propanamine derived neuronal reuptake inhibitors” (priority 1997, dated 2000).

Tested on: hSERT, hNET, and hDAT
Test: Simultaneous binding to cloned human transporters hSERT, hNET and hDAT
Details: for Simultaneous Transporter Binding Potency: Table 4, each of the potency values greater than 7.0; for Simultaneous Transporter Binding Potency (Human): Table 5, comparison of rat and human data

CNCCC(Oc1ccc(C(F)(F)F)cc1)c1ccccc1 (stereo not drawn) [Prozac ®, reference compound]
Simultaneous Transporter Binding Potency: no
Simultaneous Transporter Binding Potency (Human): no

Fc1ccc([C@@H]2CCNC[C@H]2COc2ccc3c(c2)OCO3)cc1 [Paxil ®, reference compound]
Simultaneous Transporter Binding Potency: no
Simultaneous Transporter Binding Potency (Human): no

COc1ccc(C(CN(C)C)C2(O)CCCCC2)cc1 (stereo not drawn) [Effexor ®, reference compound]
Simultaneous Transporter Binding Potency: no
Simultaneous Transporter Binding Potency (Human): no
